Results reported in patent publication US6575945B2, “Method and apparatus for overcoming infection in a tissue pocket surrounding an implanted device” (Biolink Corporation, priority 2000, dated 2003).

Details: 160 mg per 1 ml saline injected into capsule

uptake in the blood from tissue capsule (blood levels at 0, 1, 4, 12, 24, 48, 72 hours): slow uptake in the blood
Substance: gentamicin
bloodstream level reached (steady state over a few days): very low (non-pharmacologic) bloodstream dose
